Values quoted from earlier work in patent EP4640072A1, “FLEECE MATERIALS TREATED WITH AN ION-PAIRING AGENT AND ORAL PRODUCTS COMPRISING FLEECE MATERIALS TREATED WITH AN ION-PAIRING AGENT” (Nicoventures Trading Limited, priority 2024, dated 2025).

Settings: lipophilicity of the organic acid; values obtained from PubChem or calculated

## Chicoric acid
  log(P)*: 2.0
